Read-outs that look alike come from different tables or passages of the source.
Legend:
[1] = target: human JAK1 (a.a. 837-1142) (Homo sapiens, UniProt P23458); assay: In vitro JAK kinase assay (HTRF, phosphorylation of biotinylated peptide); assay type: biochemical; conditions: at Km ATP (90 μM ATP for Jak1)
Procedure: (§1) The compounds of the invention were tested for inhibitory activity of JAK targets according to the following in vitro assay described in Park et al., Analytical Biochemistry 1999, 269, 94-104. The catalytic domains of human JAK1 (a.a. 837-1142), JAK2 (a.a. 828-1132) and JAK3 (a.a. 781-1124) with an N-terminal His tag were expressed using baculovirus in insect cells and purified. The catalytic activity of JAK1, JAK2 or JAK3 was assayed by measuring the phosphorylation of a biotinylated peptide. The phosphorylated peptide was detected by homogenous time resolved fluorescence (HTRF). IC50 was measured for each kinase in the 40 μL reactions that contain the enzyme, ATP and 500 nM peptide in 50 mM Tris (pH 7.8) buffer with 100 mM NaCl, 5 mM DTT, and 0.1 mg/mL (0.01%) BSA. The ATP concentration in the reactions was 90 μM for Jak1, 30 μM for Jak2 and 3 μM for Jak3. Reactions were carried out at room temperature for 1 hr and then stopped with 20 μL 45 mM EDTA, 300 nM SA-APC, 6 nM Eu-Py20 in assay buffer (Perkin Elmer, Boston, Mass.). Binding to the Europium labeled antibody took place for 40 minutes and HTRF signal was measured on a Fusion plate reader (Perkin Elmer, Boston, Mass.).

By UniProt entry, the sequences of proteins in these tests, tags left out. Residues count along the entry.
UniProt O60674, 828-1132: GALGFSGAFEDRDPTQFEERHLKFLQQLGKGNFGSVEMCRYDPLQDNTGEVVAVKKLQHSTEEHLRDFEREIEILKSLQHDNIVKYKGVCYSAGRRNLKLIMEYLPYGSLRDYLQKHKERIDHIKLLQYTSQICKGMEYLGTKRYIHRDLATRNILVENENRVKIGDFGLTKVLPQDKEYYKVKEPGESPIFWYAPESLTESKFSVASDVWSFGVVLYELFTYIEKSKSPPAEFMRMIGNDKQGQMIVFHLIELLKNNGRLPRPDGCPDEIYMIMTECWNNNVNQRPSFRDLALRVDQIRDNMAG

[2] = target: human JAK2 (a.a. 828-1132) (Homo sapiens (Human), UniProt O60674); assay: as above; assay type: biochemical
Procedure: as §1

[3] = at Km ATP (30 μM ATP for Jak2), read-out: JAK2 IC50 (nM) at Km ATP

CCCCCC(CC#N)n1cc(-c2ncnc3[nH]ccc23)cn1 (single isomer, unassigned) [Example 1, second peak (free base), 3-[4-(7H-pyrrolo[2,3-d]pyrimidin-4-yl)-1H-pyrazol-1-yl]octanenitrile]
IC50 [1]: 0.34 nM | IC50 [2, 3]: 0.26 nM | IC50 ([2]; read-out: IC50 value for JAK2): < 10 nM

CCCCCC(CC#N)n1cc(-c2ncnc3[nH]ccc23)cn1.O=P(O)(O)O (single isomer, unassigned) [Example 1, second peak (phosphate salt), 3-[4-(7H-pyrrolo[2,3-d]pyrimidin-4-yl)-1H-pyrazol-1-yl]octanenitrile phosphoric acid salt]
IC50 [1]: 0.63 nM | IC50 [2, 3]: 0.29 nM

CCCCCC(CC#N)n1cc(-c2ncnc3[nH]ccc23)cn1 (single isomer, unassigned) [Example 1, first peak (free base), 3-[4-(7H-pyrrolo[2,3-d]pyrimidin-4-yl)-1H-pyrazol-1-yl]octanenitrile]
IC50 [1]: 3.9 nM | IC50 [2, 3]: 2.2 nM

Source: patent US9216984B2, “3-[4-(7H-pyrrolo[2,3-D]pyrimidin-4-yl)-1H-pyrazol-1-yl]octane—or heptane-nitrile as JAK inhibitors” (Incyte Corporation, priority 2009, dated 2015)
